Results reported in PubChem BioAssay AID2435 (The Scripps Research Institute Molecular Screening Center, 2010).
Only a part is listed here, and it is no random draw. Some of these compounds have results that are not shown, active ones among them. The source made the active and inactive calls.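 Rule for the calls: active = activation above the mean of all tested compounds plus 3 SD, cutoff set per screening run (cut at about 20% in these data); inactive = the rest.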

Amino acid sequences for entries named in this document (tags omitted).
UniProt P30559, whole entry: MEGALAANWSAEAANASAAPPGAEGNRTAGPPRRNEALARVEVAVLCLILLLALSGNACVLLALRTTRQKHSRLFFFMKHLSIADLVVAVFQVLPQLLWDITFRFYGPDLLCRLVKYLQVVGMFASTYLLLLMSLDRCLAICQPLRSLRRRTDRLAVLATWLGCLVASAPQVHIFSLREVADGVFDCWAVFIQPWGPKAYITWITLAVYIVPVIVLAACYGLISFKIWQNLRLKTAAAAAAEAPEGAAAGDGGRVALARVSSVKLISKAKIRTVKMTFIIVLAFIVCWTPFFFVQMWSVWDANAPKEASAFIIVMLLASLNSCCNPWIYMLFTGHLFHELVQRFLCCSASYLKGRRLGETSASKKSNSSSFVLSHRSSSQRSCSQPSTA

What follows are compounds tested against Oxytocin receptor (Homo sapiens) (UniProt P30559) (assay: oxytocin receptor activation by calcium flux – fluorescence, CHO-OTR cells, Fluo-8 calcium, primary screen (AID 2435;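 note: peak over basal fluorescence ratio from a 100 s FLIPR kinetic read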)). Settings: Fluo-8 calcium fluorescence, at 3 µM, stronger effect = higher value, normalized: DMSO 0%, oxytocin 100%.

| Compound | activation |
| --- | --- |
| Cc1cc(C(=O)NCC2(N3CCCCC3)CCCCC2)ccc1[N+](=O)[O-] | inactive: -0.54% |
| CCN1CCCC(OC(=O)C2(O)c3ccccc3C=Cc3ccccc32)C1 (centres undefined) | inactive: 2.43% |
| O=C(NCC1(N2CCCCC2)CCCCC1)c1cccc(Br)c1 | inactive: -0.53% |
| COc1ccc(C(=O)NCC2(N(C)C)CCCCC2)cc1 | inactive: 1.09% |
| C=CCN1CCN(CCOC(=O)C(O)(c2ccccc2)c2ccccc2)CC1 | inactive: 0.79% |
| O=C(NCC1(N2CCCCC2)CCCCC1)c1cc(F)c(F)cc1Cl | inactive: 0.34% |
| Cc1ccccc1C(=O)NCC1(N2CCCCC2)CCCCC1 | inactive: -0.42% |
| CN(C)C1CCCC1OC(=O)C(O)(c1ccccc1)c1ccccc1 (centres undefined) | inactive: 1.12% |
| CN(C)c1ccc(C(=O)NCC2(N(C)C)CCCCC2)cc1 | inactive: 0.34% |
| Cc1ccc(C(=O)NCC2(N3CCCCC3)CCCCC2)cc1 | inactive: 0.59% |
| CC(C)N1C(=O)CC2(CCN(CCOC(=O)C(O)(c3ccccc3)c3ccccc3)CC2)C1=O | inactive: -0.8% |
| CCN(CC)CC(C)C(C)OC(=O)C(O)(c1ccccc1)c1ccccc1 (centres undefined) | inactive: -0.24% |
| COc1cc(SC)ccc1C(=O)NCC1(N(C)C)CCCCC1 | inactive: -0.29% |
| CN1[C@@H]2CC[C@H]1CC(OC(=O)C(O)(c1ccccc1)c1ccccc1)C2 (some centres undefined) | inactive: 0.92% |
| O=C(NCC1(N2CCCCC2)CCCCC1)c1cc([N+](=O)[O-])ccc1Cl | inactive: -0.98% |
| CN(C)c1cccc(C(=O)NCC2(N(C)C)CCCCC2)c1 | inactive: 0.07% |
| CC(C)Oc1ccc(C(=O)NCC2(N(C)C)CCCCC2)cc1 | inactive: 1.5% |
| COc1ccc(Br)c(C(=O)NCC2(N3CCCCC3)CCCCC2)c1 | inactive: -0.35% |
| O=C(OC1CN2CCC1CC2)C(CO)(c1ccccc1)c1ccccc1 (centres undefined) | inactive: 1.21% |
| O=C(NCC1(N2CCCCC2)CCCCC1)c1cccc(Cl)c1 | inactive: 1.18% |
| COc1cccc(C(=O)NCC2(N3CCCCC3)CCCCC2)c1 | inactive: -0.93% |
| COc1ccc(Cl)cc1C(=O)NCC1(N(C)C)CCCCC1 | inactive: 1.48% |
| COc1cc(C(=O)NCC2(N(C)C)CCCCC2)c([N+](=O)[O-])cc1OC | inactive: 0.26% |
| CN(C)C1(CNC(=O)c2ccc(Br)cc2)CCCCC1 | inactive: -1.02% |
